IC50 data for one compound are collected here from US20190151403A1, “NOVEL CYCLOSPORIN DERIVATIVES AND USES THEREOF” (S&T Global Inc., priority 2016, published 2019).

Protein sequences, listed by entry. Tags and fused reporters are not part of them.
UniProt P62937, whole entry: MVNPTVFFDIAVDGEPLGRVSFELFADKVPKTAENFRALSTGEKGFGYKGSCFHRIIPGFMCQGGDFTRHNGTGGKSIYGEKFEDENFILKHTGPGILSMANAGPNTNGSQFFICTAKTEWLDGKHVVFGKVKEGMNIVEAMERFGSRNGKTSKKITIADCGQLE

pIC50: −log10 of the molar value.

This assay deals with T1, Human recombinant CypA (Homo sapiens, UniProt P62937).
T1 construct: purchased Atgen
In words: Cyclophilin A PPIase inhibition, α-chymotrypsin-coupled assay. It counts as biochemical. Particulars: 10 nM human recombinant CypA, 5° C, succinyl-AAPF-pNA substrate. How it is done:
Inhibition of CyPA isomerase activity was assessed using the α-chymotrypsin-coupled assay adapted to a 96-well plate format. Human recombinant CypA (Atgen) was dissolved to 10 nM in isomerase buffer (50 mM Hepes, 100 mM NaCl, 1 mg/ml bovine serum albumin, 1 mg/ml a-chymotrypsin; pH 8). Succinyl-AAPF-pNA peptide substrate (Sigma) was dissolved to 3.2 mM in dried LiCl/trifluoroethanol. […] All solutions were equilibrated, and reactions conducted at 5° C. Reactions were initiated by mixing 95 μL reaction mix with 5 μL peptide preloaded in multiple wells of 96-well plates and measuring OD405 nm in each well at 6-sec intervals for 6 min using a BMG Polarstar Galaxy plate reader. Data were fitted with Graphpad Prism 6.0 to obtain first-order rate constants. Enzyme catalyzed rate constants were calculated by subtracting the rate constant from uncatalyzed reactions (no CypA), and the catalytic rate constants plotted as a function of inhibitor concentration to obtain IC50s (see […] et al., 2015, PLOS ONE).

The term pIC50 denotes the IC50 on a negative log10 scale, so that one unit is a factor of ten. Turning to `C/C=C/C[C@@H](C)[C@@H](O)[C@H]1C(=O)N[C@@H](CC)C(=O)N(C)[C@H](SCCN(C)C)C(=O)N(C)[C@@H](CC(C)(C)O)C(=O)N[C@@H](C(C)C)C(=O)N(C)[C@@H](CC(C)C)C(=O)N[C@@H](C)C(=O)N[C@H](C)C(=O)N(C)[C@@H](CC(C)C)C(=O)N(C)[C@@H](CC(C)C)C(=O)N(C)[C@@H](C(C)C)C(=O)N1C`, the pIC50 was 8.00 to 8.40.
